The structures appear in SMILES notation. The list shows a part of the results, in another mix than the full data. Active and inactive are the calls of the source. Calls come from the whole dose curve; as a rule, active = well fitted inhibition curve with a large enough effect; inconclusive = small, poorly fitted or top-dose-only effect; inactive = no such curve, though single readings can be large or run the other way.

By UniProt entry, the sequences of proteins in these tests, tags left out.
UniProt P38398, whole entry: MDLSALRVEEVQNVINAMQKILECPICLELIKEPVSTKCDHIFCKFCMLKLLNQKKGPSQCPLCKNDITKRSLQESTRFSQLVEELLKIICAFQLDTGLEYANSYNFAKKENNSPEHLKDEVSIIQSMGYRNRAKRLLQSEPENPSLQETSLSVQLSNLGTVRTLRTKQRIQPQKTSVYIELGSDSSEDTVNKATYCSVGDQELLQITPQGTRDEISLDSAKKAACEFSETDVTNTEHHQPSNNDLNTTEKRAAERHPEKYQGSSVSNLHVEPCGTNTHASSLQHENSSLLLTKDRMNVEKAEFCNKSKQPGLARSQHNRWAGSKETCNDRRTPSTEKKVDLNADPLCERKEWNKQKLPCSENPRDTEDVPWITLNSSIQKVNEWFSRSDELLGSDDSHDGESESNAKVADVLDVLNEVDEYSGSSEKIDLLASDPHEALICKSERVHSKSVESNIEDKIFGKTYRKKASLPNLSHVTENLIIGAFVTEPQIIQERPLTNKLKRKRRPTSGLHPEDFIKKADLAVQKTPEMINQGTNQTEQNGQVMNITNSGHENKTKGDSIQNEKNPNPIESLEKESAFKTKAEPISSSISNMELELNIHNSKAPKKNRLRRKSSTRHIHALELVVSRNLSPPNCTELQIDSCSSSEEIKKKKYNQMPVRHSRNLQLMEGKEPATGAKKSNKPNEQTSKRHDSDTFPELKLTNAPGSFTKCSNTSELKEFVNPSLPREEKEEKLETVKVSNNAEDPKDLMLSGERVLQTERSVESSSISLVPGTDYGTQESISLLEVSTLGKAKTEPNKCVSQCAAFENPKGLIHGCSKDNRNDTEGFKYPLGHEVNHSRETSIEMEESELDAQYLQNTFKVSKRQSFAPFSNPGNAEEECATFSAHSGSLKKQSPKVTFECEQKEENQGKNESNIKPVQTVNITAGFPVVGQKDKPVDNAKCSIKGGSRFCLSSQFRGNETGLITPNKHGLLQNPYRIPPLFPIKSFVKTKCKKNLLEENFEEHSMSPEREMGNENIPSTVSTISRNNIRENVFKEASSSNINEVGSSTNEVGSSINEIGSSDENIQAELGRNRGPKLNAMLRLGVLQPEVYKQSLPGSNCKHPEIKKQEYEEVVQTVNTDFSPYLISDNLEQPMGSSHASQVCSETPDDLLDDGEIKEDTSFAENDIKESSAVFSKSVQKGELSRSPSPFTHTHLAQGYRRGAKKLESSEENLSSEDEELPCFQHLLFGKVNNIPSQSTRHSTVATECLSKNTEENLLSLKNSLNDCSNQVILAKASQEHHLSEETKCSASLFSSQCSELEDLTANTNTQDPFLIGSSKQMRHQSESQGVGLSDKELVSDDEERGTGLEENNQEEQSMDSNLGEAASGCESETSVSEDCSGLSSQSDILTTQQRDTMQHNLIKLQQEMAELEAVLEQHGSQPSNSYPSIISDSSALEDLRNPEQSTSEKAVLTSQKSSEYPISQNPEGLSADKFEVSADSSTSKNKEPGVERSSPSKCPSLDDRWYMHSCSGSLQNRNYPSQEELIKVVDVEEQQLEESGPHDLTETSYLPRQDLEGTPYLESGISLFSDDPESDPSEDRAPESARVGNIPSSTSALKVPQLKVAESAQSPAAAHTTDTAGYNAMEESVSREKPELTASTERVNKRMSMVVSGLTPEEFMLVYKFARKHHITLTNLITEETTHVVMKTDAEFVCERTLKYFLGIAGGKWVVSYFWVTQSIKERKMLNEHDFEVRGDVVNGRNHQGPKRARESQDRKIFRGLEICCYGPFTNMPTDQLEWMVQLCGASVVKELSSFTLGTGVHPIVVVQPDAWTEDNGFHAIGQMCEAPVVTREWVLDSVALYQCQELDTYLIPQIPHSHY

For the experiment, the target named is Breast cancer type 1 susceptibility protein (Homo sapiens) (UniProt P38398). Briefly: qHTS Assay for Inhibitors of BRCT-Phosphoprotein Interaction (Green Fluorophore). Particulars: BRCA1 BRCT-phosphopeptide binding, green fluorescence polarization; at 76.9 µM (top of the series) unless noted. As to the method: NIH Molecular Libraries Screening Centers Network [MLSCN]
NIH Chemical Genomics Center [NCGC]
PI Name: Natarajan, Amarnath; University of Texas
A complex of BRCT (C-terminal portion of BRCA1, MW ~35 kDa, His-tagged) and fluorescently labeled pBACH1 phosphorylated 10 aa peptide fragment of BACH1, a helicase implicated in DNA repair, is incubated with library members. Inhibitors of BRCT-pBACH1 binding are detected by a decrease in the fluorescence polarization (FP) of the fluorophore. In order to minimize the effect of fluorescence artifacts and to increase the overall robustness of the screen, the compound library members were incubated in separate reactions with fluorescein labeled probe-protein complexes. Protein and labeled probes were supplied by Dr. Amarnath Natarajan, Department of Pharmacology and Toxicology, University of Texas Medical Branch Galveston, TX.
Assay Buffer: 16mM Na2HPO4, 4 mM NaH2PO4, 150 mM NaCl, 1 mM EDTA, 1 mM DTT, 0.02% NaN3, and 0.01% Tween 20 at pH 7.3.
100 nM labeled decapeptide/250 nM protein in columns 1, 2, 5 - 48. Titration of unlabeled decapeptide control (from 10 mM, then 1:2 dilution in duplicate) pin-transferred to column 2, rows 1 to 16. Column 1 is neutral.
Three uL of reagents were dispensed to 1536-well Greiner black solid-bottom plates. Compounds and controls (23 nL) were transferred
via Kalypsys PinTool. The plates were incubated for 12 min at room temperature, and then read on ViewLux (Perkin-Elmer) High throughput CCD imager using FITC for the fluorescein-labeled decapeptide probe polarization filter sets. During dispense, reagent bottles were kept submerged into 4 deg C water bath and all liquid lines were covered with aluminum foil to minimize probe and protein degradation. All screening operations were performed on a Kalypsys robotic system (Kalypsys, Inc., San Diego, CA) containing one RX-130 and two RX-90 anthropomorphic robotic arms. The timing and order of assay plates passing through the screening system were adjusted such that each compound library plate was assayed against the fluorescein- and rhodamine-labeled assay systems at immediately adjacent time points.
A general note: In qHTS, concentration-response curves come from the screen itself.
With `CP(=O)(Nc1ccccc1F)Oc1ccccc1` (configuration not stated), the activity change, negative = inhibition is inactive: -1.36%.
As to `Cc1cccc([N+](=O)[O-])c1[N+](=O)[O-]`, the activity change, negative = inhibition is inactive: -2.35%.
With `CCC(C)(OO)OOC(C)(CC)OO` (configuration not stated), the activity change, negative = inhibition is inactive: -0.367%.
Take `CN(C)CCOC(=O)C(O)(c1ccccc1)C1CCCCC1` (configuration not stated): the activity change, negative = inhibition was inactive: -1.54%.
The same measure for `Cc1ccc([N+](=O)[O-])c([N+](=O)[O-])c1`: inactive: -0.806%.
Consider `Cc1c([N+](=O)[O-])cccc1[N+](=O)[O-]`, for which the activity change, negative = inhibition is inactive: -7.72%.
As to `CCOP(C)(=S)SCC(=O)NC(C)(CC)C(=O)O` (configuration not stated), the activity change, negative = inhibition was inactive: -3.36%.
Consider `CCOP(=O)(CC)OCC`, for which the activity change, negative = inhibition is inactive: 0.0277%.
For the compound `[NH4+].[O-][Cl+3]([O-])([O-])[O-]`, the activity change, negative = inhibition is inactive: 4.57%.
As for `CCN(CCCl)Cc1ccccc1C`, the activity change, negative = inhibition was inactive: -2.44%.
For the compound `Cc1ccccc1NP(C)(=O)Nc1ccccc1C`, the activity change, negative = inhibition is inactive: -1.39%.
For the compound `NNC(NN)NN.n1nc(-c2nn[nH]n2)n[nH]1`, the activity change, negative = inhibition is inactive: 0.63% [at 15.4 µM].
The figure for `CP(=O)(Nc1ccc2c(c1)OCCO2)Oc1ccccc1` (configuration not stated) is inactive: -2.13%; for `OCCSCCO` it is inactive: 0.82% [at 3.08 µM].
For the compound `COc1ccccc1OP(C)(=O)Nc1c(C)n(C)n(-c2ccccc2)c1=O` (configuration not stated), the activity change, negative = inhibition was inactive: -1.18%.
Consider `CP(=O)(Oc1ccccc1)N1CCOC1=O` (configuration not stated), for which the activity change, negative = inhibition was inactive: -2.56%.
For `N#[O+].[C-]#N.[C-]#N.[C-]#N.[C-]#N.[C-]#N.[Fe+2].[Na+].[Na+]`, the activity change, negative = inhibition was inactive: -1.74%.
The same measure for `C/C1=C2N=C(/C=C3N=C(/C(C)=C4\[N-][C@@](C)([C@H]5N=C1[C@@](C)(CCC(=O)NC[C@H](C)OP(=O)([O-])O[C@@H]1[C@H](O)[C@H](n6cnc7cc(C)c(C)cc76)O[C@@H]1CO)[C@@H]5CC(N)=O)[C@](C)(CC(N)=O)[C@H]4CCC(N)=O)[C@@](C)(CC(N)=O)[C@@H]\3CCC(N)=O)C(C)(C)[C@@H]/2CCC(N)=O.[C-]#N.[Co+3]`: inactive: -1.46% [at 34.4 µM].
Take `COc1ccccc1OP(C)(=O)Nc1ccc(C)c(C)c1` (configuration not stated): the activity change, negative = inhibition was inactive: -1.29%.
As for `Cc1nc2ccc3ccccc3c2o1.O=[N+]([O-])c1cc([N+](=O)[O-])c(O)c([N+](=O)[O-])c1`, the activity change, negative = inhibition is inactive: -5.89%.
Take `CP(=O)(Nc1ccccn1)Oc1ccccc1` (configuration not stated): the activity change, negative = inhibition is inactive: -0.69%.
For the compound `O=[N+]([O-])[O-].[NH4+]`, the activity change, negative = inhibition is inactive: 0.0639%.
As to `Cc1ccc(NP(C)(=O)Oc2ccccc2)c(C)c1` (configuration not stated), the activity change, negative = inhibition was inactive: -0.539%.
Turning to `COc1ccccc1OP(C)(=O)Nc1ccc(C)cc1` (configuration not stated), the activity change, negative = inhibition is inactive: 1.67%.
The same measure for `N1=C(c2nnc(-c3nn[nH]n3)nn2)NNN1`: inactive: -0.372% [at 15.4 µM]; for `CP(=S)(Nn1cnnc1)Oc1ccccc1` (configuration not stated): inactive: -1.71%.
For `CP(=O)(NC(=O)Nc1ccccc1)Oc1ccccc1` (configuration not stated), the activity change, negative = inhibition was inactive: -2.36%.
Turning to `CCOP(C)(=S)SCC(=O)NC(C)C(=O)O` (configuration not stated), the activity change, negative = inhibition is inactive: 0.625%.
Take `Cc1nc2ccc3ccccc3c2s1.O=[N+]([O-])c1cc([N+](=O)[O-])c(O)c([N+](=O)[O-])c1`: the activity change, negative = inhibition is inactive: -0.0423%.
In the case of `O=[N+]([O-])c1cccc([N+](=O)[O-])c1`, the activity change, negative = inhibition is inactive: -0.669%.
For `Cc1ccc([N+](=O)[O-])cc1[N+](=O)[O-]`, the activity change, negative = inhibition was inactive: -0.778%.
Consider `Cc1ccc(C)c(NP(C)(=O)Oc2ccccc2)c1` (configuration not stated), for which the activity change, negative = inhibition was inactive: -0.368%.

The record behind these values is PubChem BioAssay AID875 (National Center for Advancing Translational Sciences (NCATS), 2007).
